Literature values, collected in patent US7592457B2 (Korea Research Institute of Chemical Technology, priority 2004, dated 2009).

The chains behind the UniProt entries cited, without tags or fusion partners.
UniProt P50406, whole entry: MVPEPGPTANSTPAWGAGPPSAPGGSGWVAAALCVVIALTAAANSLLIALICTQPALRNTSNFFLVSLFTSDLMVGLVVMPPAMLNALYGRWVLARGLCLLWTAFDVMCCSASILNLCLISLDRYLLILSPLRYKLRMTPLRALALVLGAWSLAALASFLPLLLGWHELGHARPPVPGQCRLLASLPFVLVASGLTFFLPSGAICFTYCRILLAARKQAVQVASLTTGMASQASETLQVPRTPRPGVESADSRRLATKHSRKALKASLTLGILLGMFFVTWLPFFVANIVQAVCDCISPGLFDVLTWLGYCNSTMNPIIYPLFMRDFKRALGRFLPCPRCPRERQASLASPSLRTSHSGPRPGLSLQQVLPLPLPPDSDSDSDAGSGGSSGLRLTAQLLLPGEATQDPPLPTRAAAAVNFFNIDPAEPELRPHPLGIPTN

Experiments:
[1] = literature; cited from earlier work
5-HT6 receptors [2] = target: T1, 5-HT6 receptors (Homo sapiens, UniProt P50406); details: literature, cited from earlier work
[3] = test system: 50 other receptor/binding sites; details: literature; cited from earlier work
5-HT6 receptors [4] = target: T1, 5-HT6 receptors; details: antagonist of cAMP accumulation, literature; cited from earlier work

For `COc1ccc(NS(=O)(=O)c2ccc(Br)cc2)cc1N1CCN(C)CC1`, the “bioavailability (in words)” value [1] is given as “low bioavailability”, the brain penetrant [1] is given as 25% and the “clearance (in words)” value [1] is given as “rapid blood clearance”. For the same compound, the Ki (5-HT6 receptors [2]; 5-HT6 receptors) was 5 nM, the “selectivity over 10 other 5-HT receptors” value (5-HT6 receptors [2]) was greater than 50 fold and the “affinity for 50 other receptor/binding sites” value [3] was “no measurable affinity”. The pKb (5-HT6 receptors [4]) was 7.8.
